The target in the assay is T1, hERG potassium channel (wild-type) (Homo sapiens, UniProt Q12809).
T1 construct: gene KCNH2
The assay is described as follows: cell-based.

Protein sequences, listed by entry. Tags and fused reporters are not part of them. Lines headed by an entry give the natural chain unless they say otherwise; changes in a name come on top.
UniProt Q12809: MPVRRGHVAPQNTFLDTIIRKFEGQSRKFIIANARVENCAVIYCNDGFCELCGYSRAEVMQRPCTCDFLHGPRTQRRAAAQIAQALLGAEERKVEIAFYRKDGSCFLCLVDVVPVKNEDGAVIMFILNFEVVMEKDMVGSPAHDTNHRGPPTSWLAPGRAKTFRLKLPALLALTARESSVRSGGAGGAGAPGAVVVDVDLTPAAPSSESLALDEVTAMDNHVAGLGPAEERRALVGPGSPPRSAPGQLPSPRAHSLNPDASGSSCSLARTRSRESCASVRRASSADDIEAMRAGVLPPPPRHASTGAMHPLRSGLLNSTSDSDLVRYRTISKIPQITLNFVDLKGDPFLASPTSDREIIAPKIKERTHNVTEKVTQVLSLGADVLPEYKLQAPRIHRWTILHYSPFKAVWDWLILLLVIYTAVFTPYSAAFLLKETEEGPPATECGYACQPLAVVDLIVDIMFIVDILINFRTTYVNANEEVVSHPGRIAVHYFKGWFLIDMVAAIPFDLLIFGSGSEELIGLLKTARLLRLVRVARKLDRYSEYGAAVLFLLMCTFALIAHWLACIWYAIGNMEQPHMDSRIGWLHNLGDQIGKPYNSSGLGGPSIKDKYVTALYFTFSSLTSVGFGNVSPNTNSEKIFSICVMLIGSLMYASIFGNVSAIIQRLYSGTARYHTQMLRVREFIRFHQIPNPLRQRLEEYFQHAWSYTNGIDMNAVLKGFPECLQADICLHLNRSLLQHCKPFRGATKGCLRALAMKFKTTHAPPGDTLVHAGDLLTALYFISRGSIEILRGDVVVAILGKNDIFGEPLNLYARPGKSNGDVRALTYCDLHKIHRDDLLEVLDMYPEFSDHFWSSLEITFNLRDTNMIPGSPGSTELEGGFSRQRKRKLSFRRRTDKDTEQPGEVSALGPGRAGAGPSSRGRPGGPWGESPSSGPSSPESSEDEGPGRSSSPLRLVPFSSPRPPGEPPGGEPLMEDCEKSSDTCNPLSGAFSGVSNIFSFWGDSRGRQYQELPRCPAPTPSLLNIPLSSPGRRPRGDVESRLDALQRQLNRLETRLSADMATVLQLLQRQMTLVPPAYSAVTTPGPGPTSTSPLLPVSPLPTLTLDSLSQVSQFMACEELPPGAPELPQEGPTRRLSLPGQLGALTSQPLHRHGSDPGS

With `Fc1ccc(-c2cncc(CNC[C@H]3CCc4ccccc4O3)c2)cc1` [sarizotan], half-maximal inhibition (IC50) required 183 ± 51 nM.

(Values after paper PMC6856717, “Potent hERG channel inhibition by sarizotan, an investigative treatment for Rett Syndrome” (Journal of Molecular and Cellular Cardiology, 2019).)
